Experimental data from patent US7893074B2, “2, 4-pyrimidinediamines useful in the treatment of neoplastic diseases, inflammatory and immune system disorders” (Novartis AG, priority 2003, dated 2011).

By UniProt entry, the sequences of proteins in these tests, tags left out. Residues count along the entry.
UniProt Q05397, 384-706 limits assumed: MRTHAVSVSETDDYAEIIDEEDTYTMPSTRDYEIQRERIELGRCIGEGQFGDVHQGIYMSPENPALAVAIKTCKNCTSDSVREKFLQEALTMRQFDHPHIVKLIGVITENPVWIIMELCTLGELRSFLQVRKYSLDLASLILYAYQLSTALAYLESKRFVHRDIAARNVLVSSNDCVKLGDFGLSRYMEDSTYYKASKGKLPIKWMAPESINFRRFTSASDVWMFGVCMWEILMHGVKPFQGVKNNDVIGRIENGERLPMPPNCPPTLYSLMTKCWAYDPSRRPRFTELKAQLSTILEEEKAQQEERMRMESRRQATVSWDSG
UniProt P08069, 31-1367 limits assumed: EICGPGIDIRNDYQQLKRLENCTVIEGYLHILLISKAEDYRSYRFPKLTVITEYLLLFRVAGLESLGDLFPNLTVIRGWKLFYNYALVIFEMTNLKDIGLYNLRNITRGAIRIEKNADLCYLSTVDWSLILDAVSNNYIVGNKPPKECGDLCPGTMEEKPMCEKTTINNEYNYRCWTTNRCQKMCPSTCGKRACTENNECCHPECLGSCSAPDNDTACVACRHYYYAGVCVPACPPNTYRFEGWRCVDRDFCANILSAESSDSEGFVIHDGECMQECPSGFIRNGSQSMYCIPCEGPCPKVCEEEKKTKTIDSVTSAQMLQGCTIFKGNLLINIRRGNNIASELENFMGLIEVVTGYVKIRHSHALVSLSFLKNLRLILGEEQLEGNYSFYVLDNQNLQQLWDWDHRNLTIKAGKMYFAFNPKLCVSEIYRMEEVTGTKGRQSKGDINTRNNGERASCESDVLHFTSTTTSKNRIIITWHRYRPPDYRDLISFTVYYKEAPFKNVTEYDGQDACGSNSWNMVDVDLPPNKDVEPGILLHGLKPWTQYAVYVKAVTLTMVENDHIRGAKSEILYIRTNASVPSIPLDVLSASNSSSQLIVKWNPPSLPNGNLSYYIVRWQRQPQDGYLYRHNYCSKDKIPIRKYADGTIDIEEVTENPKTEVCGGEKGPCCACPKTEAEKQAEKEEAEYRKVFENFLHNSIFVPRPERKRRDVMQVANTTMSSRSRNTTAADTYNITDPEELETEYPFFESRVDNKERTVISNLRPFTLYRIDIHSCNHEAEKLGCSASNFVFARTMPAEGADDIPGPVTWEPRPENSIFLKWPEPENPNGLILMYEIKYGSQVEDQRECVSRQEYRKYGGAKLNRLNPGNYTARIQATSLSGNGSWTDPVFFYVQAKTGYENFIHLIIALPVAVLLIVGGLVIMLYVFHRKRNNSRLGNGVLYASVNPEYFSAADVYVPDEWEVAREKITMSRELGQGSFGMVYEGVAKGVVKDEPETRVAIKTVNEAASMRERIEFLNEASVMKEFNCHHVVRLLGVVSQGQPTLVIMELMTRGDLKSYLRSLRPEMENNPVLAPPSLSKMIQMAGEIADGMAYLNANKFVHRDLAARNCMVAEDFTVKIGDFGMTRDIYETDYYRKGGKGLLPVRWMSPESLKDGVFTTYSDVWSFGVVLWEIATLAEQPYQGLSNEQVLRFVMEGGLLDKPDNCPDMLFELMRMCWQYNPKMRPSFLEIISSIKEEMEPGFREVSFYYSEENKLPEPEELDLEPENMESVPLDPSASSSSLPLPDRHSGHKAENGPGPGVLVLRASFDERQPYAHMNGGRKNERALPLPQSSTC
UniProt P34152, 2-1052 limits assumed: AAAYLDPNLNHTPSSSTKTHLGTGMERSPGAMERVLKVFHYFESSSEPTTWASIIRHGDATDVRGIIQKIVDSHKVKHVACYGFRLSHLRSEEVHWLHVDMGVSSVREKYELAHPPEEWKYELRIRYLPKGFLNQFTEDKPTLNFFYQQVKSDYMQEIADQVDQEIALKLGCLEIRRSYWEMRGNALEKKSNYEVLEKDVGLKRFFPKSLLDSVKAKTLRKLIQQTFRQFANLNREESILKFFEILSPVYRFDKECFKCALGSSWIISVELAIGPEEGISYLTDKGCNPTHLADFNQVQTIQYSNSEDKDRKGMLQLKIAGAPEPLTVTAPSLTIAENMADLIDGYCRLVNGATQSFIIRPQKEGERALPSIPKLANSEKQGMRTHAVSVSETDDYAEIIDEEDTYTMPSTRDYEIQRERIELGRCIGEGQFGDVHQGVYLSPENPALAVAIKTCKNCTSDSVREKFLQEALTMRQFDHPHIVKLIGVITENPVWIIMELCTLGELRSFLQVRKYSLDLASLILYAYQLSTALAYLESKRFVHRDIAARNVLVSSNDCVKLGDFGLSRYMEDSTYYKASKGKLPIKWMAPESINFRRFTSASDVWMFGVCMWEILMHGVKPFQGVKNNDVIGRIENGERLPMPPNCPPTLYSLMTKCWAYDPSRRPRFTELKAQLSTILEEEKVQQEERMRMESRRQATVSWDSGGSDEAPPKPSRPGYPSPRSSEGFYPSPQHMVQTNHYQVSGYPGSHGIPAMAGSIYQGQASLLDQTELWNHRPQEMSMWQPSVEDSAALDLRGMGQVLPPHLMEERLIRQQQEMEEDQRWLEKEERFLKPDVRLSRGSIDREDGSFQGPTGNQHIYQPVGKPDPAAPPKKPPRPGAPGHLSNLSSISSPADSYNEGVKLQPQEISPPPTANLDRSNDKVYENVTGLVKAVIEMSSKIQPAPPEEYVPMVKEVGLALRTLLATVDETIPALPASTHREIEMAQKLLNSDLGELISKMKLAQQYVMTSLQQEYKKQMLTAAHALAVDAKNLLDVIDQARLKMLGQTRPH

Columns and labels:
[1] = target: Focal Adhesion Kinase (FAK) (Homo sapiens, UniProt Q05397); test: FAK assay system (Focal Adhesion Kinase inhibition); format: biochemical; settings: read-out: FAK IC50
T Cell = T Cell Migration; format: cell-based; settings: read-out: T Cell Migration IC50
[2] = test system: Mouse mammary carcinoma 4T1 cells; test: Anchorage-independent tumor cell growth assay; format: cell-based; settings: read-out: Growth IC50
IGF-IR = IGF-IR (Homo sapiens, UniProt P08069); test: Cellular Capture ELISA of IGF-I induced autophosphorylation of the IGF-IR; format: cell-based; settings: read-out: IGF-1R IC50
FAK = FAK (Mus musculus, UniProt P34152); test: Phos IC50 (phosphorylation); format: cell-based; settings: read-out: Phos IC50

Row | Compound | IC50 [1] [nM] | IC50 (T Cell) [nM] | IC50 [2] [nM] | IC50 (IGF-IR) [nM] | IC50 (FAK) [nM]
1 | CCCS(=O)(=O)c1ccccc1Nc1nc(Nc2cc(N3CCN(C)CC3)ccc2OC)ncc1Cl | 7 | 250 |  |  | 
2 | CCCS(=O)(=O)c1ccccc1Nc1nc(Nc2cc(N3CCC(O)CC3)ccc2OC)ncc1Cl | 4.5 |  | 50 |  | 
3 | CNC(=O)c1ccccc1Nc1nc(Nc2ccc(N3CCCC(C(N)=O)C3)cc2OC)ncc1Cl (stereo not shown) | 7.5 |  |  | 770 | 
4 | CCN(CCO)c1ccc(Nc2ncc(Br)c(Nc3ccccc3S(=O)(=O)NC)n2)c(C)c1 | 29 |  |  | 410 | 200

Stronger by IC50 [1], values ahead:

Row | IC50 [1] [nM] | IC50 (T Cell) [nM] | IC50 [2] [nM] | IC50 (IGF-IR) [nM] | IC50 (FAK) [nM] | Compound
5 | 1.6 |  | 50 |  |  | CCCS(=O)(=O)c1ccccc1Nc1nc(Nc2cc(N3CCC(N4CCN(C)CC4)CC3)ccc2OC)ncc1Cl
6 | < 1 |  |  |  |  | CCCS(=O)(=O)c1ccccc1Nc1nc(Nc2cc(N3CCC(NC)C3)ccc2OC)ncc1Cl (stereo not shown)
7 | 4 |  |  |  |  | CCCS(=O)(=O)c1ccccc1Nc1nc(Nc2cc(N3CCC(N4CCOCC4)CC3)ccc2OC)ncc1Cl
8 | 1.9 | 90 | 70 |  |  | CCCS(=O)(=O)c1ccccc1Nc1nc(Nc2cc(N3CCC(N4CCCCC4)CC3)ccc2OC)ncc1Cl
